# KDM4E inh: JMJD2E (human) inhibition; B2RXH2; JMJD2E catalytic domain, FDH-coupled NADH fluorescence (FDH is formaldehyde dehydrogenase); Potency, µM (doses to about 57.1 µM), for the others: top-dose activity change, negative = inhibition, usual class: inhibitors; 230,000 compounds, 1.6% hits; AID 2147; active means well fitted inhibition curve with a large enough effect, not every such curve was filed as active; inconclusive means small, poorly fitted or top-dose-only effect, or another doubt; inactive means no such curve, though single readings can be large or run the other way;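 further: potency means the concentration at half of the fitted maximal effect; 0% = wells with enzyme and -100% = buffer wells without enzyme; nearly all actives have a fitted effect of over 50% in size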
# Sfp inh: qHTS Assay for Inhibitors of Bacillus subtilis Sfp phosphopantetheinyl transferase (PPTase) | 4'-phosphopantetheinyl transferase ffp (Bacillus subtilis), Q9F4F7 | AID 1490, 2009 | actives 3.5% (n = 310,000) | Biochemical Sfp PPTase activity, qHTS | Potency, µM, for inactives: max response, negative = inhibition, most hits filed as inhibitors; active = well fitted inhibition curve with a large enough effect; inconclusive = small, poorly fitted or top-dose-only effect, or another doubt; inactive = no such curve, though single readings can be large or run the other way;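 also: the enzyme is Sfp with the accession as filed and its product quenches rhodamine fluorescence; potency is read from the fitted curve at half-maximal effect; 0% = enzyme reaction without inhibitor and -100% = no enzyme wells; top concentration of the series not given in the record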
#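 Reaction rates are the 30-min fluorescence difference (ex 525, em 598 nm) in wells containing 15 nM Sfp, 5 uM rhodamine-CoA and 12.5 uM BHQ-2-YbbR at pH 7.6 with 10 mM MgCl2.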
# Lamin A splicing: LMNA splicing modulation; HeLa LMNA splicing GFP/RFP minigene ratio, 48 h; Potency, µM (top dose mostly 46.1 µM), without a hit: at the top dose ratio change, negative = inhibition, most hits filed as inhibitors; 200,000 compounds, 0.01% hits; AID 1487; active means well fitted inhibition curve with a large enough effect in the signal ratio, with a control signal flat, not every such curve was filed as active; inconclusive means small, poorly fitted or top-dose-only effect, or effect the other way, or a change in a side signal; the % refers to the signal ratio; further: potency means the concentration at half of the fitted maximal effect; on the % scale 0 is the no-effect control and ±100 the full control effect
#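 S3 HeLa stable clones carrying a lamin A-EGFP splicing minigene plus DsRed2 were seeded at 600 cells/well in Opti-MEM with 2% FBS, pin-dosed and incubated 48 h at 37°C. Acumen cytometry (488 nm) gave the GFP/RFP total-intensity ratio.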
# G9a block: inhibitors of human histone lysine methyltransferase G9a; G9a H3K9 monomethylation, AlphaScreen, 2 h; Q96KQ7; 350,000 compounds, 8.8% hits; AID 504332; Potency, µM (titrated, usually from 102 µM), for the others: at the highest dose activity, negative = inhibition, hits mostly inhibitors; further: potency means the concentration at half of the fitted maximal effect; on the % scale 0 is the no-effect control and ±100 the full control effect; nearly all actives have a fitted effect of over 75% in size
#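 AlphaScreen read-out: biotin-H3K9 peptide (500 nM) methylation by 20 nM enzyme with 20 uM SAM, 2 h at room temperature after 15 min compound preincubation; anti-monomethyl H3K9 antibody plus donor/acceptor beads, 10 min dark.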
# miR-21 reporter: raises the signal of a miR-21 reporter | HeLa miR-21 FLuc reporter, luciferase, 48 h | Potency, µM (highest dose often 38.3 µM), inactives show at the highest dose reporter change, positive = more light | 340,000 tested, under 10 active | AID 2288; active = well fitted rising curve with a large enough effect; inconclusive = small, poorly fitted or top-dose-only effect; inactive = no such curve, though single readings can be large or run the other way;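 note: % of control where 0% means no effect; miR-21 action dims this reporter so a rising signal means less miR-21 action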
#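 HeLa cells stably expressing CMV-driven firefly luciferase with a downstream miR-21 binding sequence, endogenously expressing miR-21, were treated with titrations (up to about 40uM final) for 48 hours at 37 degree Celsius. Luciferase luminescence was read after lysis.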
# ALDH1A1 inh: inhibitors of human aldehyde dehydrogenase 1A1. P00352. Purified ALDH1A1, NADH fluorescence, propionaldehyde substrate. Potency, µM (highest dose often 75.3 µM), inactives show top-dose activity, negative = inhibition, most hits filed as inhibitors. 220,000 compounds, 7.3% hits; active means well fitted inhibition curve with a large enough effect, not every such curve was filed as active; inconclusive means small, poorly fitted or top-dose-only effect, or another doubt; inactive means no such curve, though single readings can be large or run the other way;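 further: potency means the concentration at half of the fitted maximal effect; plate controls were no enzyme wells and a reference inhibitor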
# An asterisk follows results filed as active; ? = inconclusive; . = not tested or not shown; ! = a repeat was not active; [ ] = another dose, or the depositor's remark. Hits are enriched below; roughly 13% of the tested compounds scored in any of these assays. Unless noted, the call rests on the fitted dose curve; in most records, active means well fitted curve in the direction sought with a large enough effect; inconclusive means small, poorly fitted or top-dose-only effect, or another doubt; inactive means no such curve, though single readings can be large; an effect the other way counts as inactive or inconclusive.
(1) COc1cccc2c1[C@@H]1CN(CCCCn3c(=O)[nH]c4c(sc5ncc(-c6ccccc6)nc54)c3=O)C[C@@H]1CO2
(2) Cc1onc(-c2ccccc2)c1C(O)c1ccc(F)cc1 (stereo unspecified)
(3) Cc1ccc(CNC(=O)CNC(=O)c2ccc(Br)o2)cc1
(4) C[C@]12CC[C@@H]3c4ccc(O)cc4CC[C@H]3[C@@H]1CC[C@@H]2O
(5) COc1cc2c(cc1O)CCC1C2CC[C@]2(C)[C@@H](O)CC[C@@H]12 (stereo partly specified)
(6) CCCN(c1ccccc1F)S(=O)(=O)c1cc(-c2cc(C)no2)ccc1C
(7) CNC(=O)C1CCC(Cn2c(=O)c3sccc3n(Cc3cc(C)ccc3C)c2=O)CC1 (stereo unspecified)
(8) CCc1ccc(OCC(=O)c2c(O)c3ccccc3oc2=O)cc1

assay / compound,1,2,3,4,5,6,7,8
KDM4E inh,-4%,.,.,-2%,-4%,.,.,?
ALDH1A1 inh,-3%,.,.,?,-2%,.,.,?
G9a block,13µM*,56%,31%,20µM*!,40µM*,18%[59 µM],10%[59 µM],45µM*
miR-21 reporter,.,0%,1%,14%,.,15%,-3%,2%
Lamin A splicing,?,.,.,?,?,.,7%[46 µM],-2%[46 µM]
Sfp inh,.,13%,13%,-9%,.,.,.,5%

# Some of the entries so far, with values under each structure.
# Below each compound – KDM4E inh | ALDH1A1 inh | G9a block | miR-21 reporter | Lamin A splicing | Sfp inh
5: COc1cc2c(cc1O)CCC1C2CC[C@]2(C)[C@@H](O)CC[C@@H]12 (stereo partly specified)
    -4% | -2% | 40µM* | . | ? | .
6: CCCN(c1ccccc1F)S(=O)(=O)c1cc(-c2cc(C)no2)ccc1C
    . | . | 18%[59 µM] | 15% | . | .

# New compounds follow:
(9) CCC1CN(C(=O)Nc2cccc3c2CCCC3)c2cc(C)ccc2O1 (stereo unspecified)
(10) CC(=O)Nc1ccc(S(=O)(=O)NCc2ccc(C)n2C)cc1
(11) CC(=O)Nc1ccc(S(=O)(=O)NCc2ccncc2)cc1
(12) COC(=O)c1cc2oc3ccccc3c2n1Cc1c(C)cc(C)cc1C
(13) CCC(=O)N1CCc2cc(CNC(=O)Cc3ccc(F)cc3)ccc21
(14) C=CCNc1ccc(N2C(=O)C3CCC(C)CC3C2=O)cc1[N+](=O)[O-] (stereo unspecified)
(15) O=C1C2CCCCC2C(=O)N1c1ccc(NC2CCCCC2)c([N+](=O)[O-])c1 (stereo unspecified)
(16) C=CCN(CC=C)c1ccc(N2C(=O)C3CCCCC3C2=O)cc1[N+](=O)[O-] (stereo unspecified)

assay / compound,9,10,11,12,13,14,15,16
KDM4E inh,.,.,-5%,.,.,8%,-11%,1%
ALDH1A1 inh,.,.,1%,.,.,?,10µM*,?
G9a block,-3%[59 µM],40µM*,6%[12.7 µM],-3%[59 µM],1%[59 µM],50µM*,8.9µM*,22µM*
miR-21 reporter,-66%,-2%,4%,1%,-24%,-5%,-6%,0%
Lamin A splicing,5%[46 µM],.,.,.,?,?,?,?
Sfp inh,.,-4%,-12%,.,.,0%,4%,3%

# Part of the list above in order of count of non-hydrogen atoms, lowest first.
(2) Cc1onc(-c2ccccc2)c1C(O)c1ccc(F)cc1 (stereo unspecified)
(13) CCC(=O)N1CCc2cc(CNC(=O)Cc3ccc(F)cc3)ccc21
(6) CCCN(c1ccccc1F)S(=O)(=O)c1cc(-c2cc(C)no2)ccc1C

assay / compound,2,13,6
KDM4E inh,.,.,.
ALDH1A1 inh,.,.,.
G9a block,56%,1%[59 µM],18%[59 µM]
miR-21 reporter,0%,-24%,15%
Lamin A splicing,.,?,.
Sfp inh,13%,.,.

# (listing goes on)
(17) CCOC(=O)c1c(-c2ccc(C)o2)csc1NC(=O)COC(=O)c1ccc(NC(N)=O)cc1
(18) CCOC(=O)c1c(CC(C)C)csc1NC(=O)COC(=O)c1ccc(O)cc1
(19) CCOC(=O)c1c(-c2ccc(C)o2)csc1NC(=O)CSc1nnc(C)s1
(20) CCOC(=O)c1c(-c2ccc(C)o2)csc1NC(=S)NC(=O)c1ccccc1Br
(21) CCOC(=O)c1c(-c2ccc(C)o2)csc1NC(=S)NC(=O)c1cccs1
(22) CCOC(=O)c1c(-c2ccccc2)csc1NC(=O)CSc1nnc(C)s1
(23) CC(C)C(C(=O)OCC(=O)c1ccccc1)N1C(=O)C2C3C=CC(C3)C2C1=O (stereo unspecified)
(24) COc1cccc(CN2C(=O)c3ccccc3Sc3ccc(C(=O)OCc4ccco4)cc32)c1
(25) CC(=O)N1CCC2(CCN(Cc3ccncc3)CC2)CC1
(26) O=C(Cn1c(NCCCO)nc2ccccc21)c1cccc(Br)c1
(27) O=C(Cn1c(NCCCO)nc2ccccc21)c1ccc(F)cc1

assay / compound,17,18,19,20,21,22,23,24,25,26,27
KDM4E inh,?,.,6%,0%,-16%,-3%,7%,.,.,-1%,.
ALDH1A1 inh,?,.,?,-14%,18µM*,-7%,7%,.,-3%,28µM*,.
G9a block,3.5µM*,-2%,?,32µM*,?,17%,.,2%[59 µM],6%[12.7 µM],?,.
miR-21 reporter,21%,.,-1%,-2%,-12%,10%,6%,-6%,.,-8%,-8%
Lamin A splicing,-8%,.,?,-12%,-11%,?,?,?,.,4%,.
Sfp inh,?,.,22µM*,3.5µM*,?,1%,7%,.,19%,-11%,7%
